In PubChem BioAssay AID504734 (The Scripps Research Institute Molecular Screening Center, 2011):
This is a selection; strong and weak results do not stand in their true shares. The source made the active and inactive calls.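 How the source made its calls: active means inhibition above the mean over all tested compounds plus 3 SD (cut at about 21% in these data); inactive means the rest.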

By UniProt entry, the sequences of proteins in these tests, tags left out. Where a name states a change or a piece, a line headed by the entry shows the natural chain unless it says otherwise.
UniProt Q9NR96: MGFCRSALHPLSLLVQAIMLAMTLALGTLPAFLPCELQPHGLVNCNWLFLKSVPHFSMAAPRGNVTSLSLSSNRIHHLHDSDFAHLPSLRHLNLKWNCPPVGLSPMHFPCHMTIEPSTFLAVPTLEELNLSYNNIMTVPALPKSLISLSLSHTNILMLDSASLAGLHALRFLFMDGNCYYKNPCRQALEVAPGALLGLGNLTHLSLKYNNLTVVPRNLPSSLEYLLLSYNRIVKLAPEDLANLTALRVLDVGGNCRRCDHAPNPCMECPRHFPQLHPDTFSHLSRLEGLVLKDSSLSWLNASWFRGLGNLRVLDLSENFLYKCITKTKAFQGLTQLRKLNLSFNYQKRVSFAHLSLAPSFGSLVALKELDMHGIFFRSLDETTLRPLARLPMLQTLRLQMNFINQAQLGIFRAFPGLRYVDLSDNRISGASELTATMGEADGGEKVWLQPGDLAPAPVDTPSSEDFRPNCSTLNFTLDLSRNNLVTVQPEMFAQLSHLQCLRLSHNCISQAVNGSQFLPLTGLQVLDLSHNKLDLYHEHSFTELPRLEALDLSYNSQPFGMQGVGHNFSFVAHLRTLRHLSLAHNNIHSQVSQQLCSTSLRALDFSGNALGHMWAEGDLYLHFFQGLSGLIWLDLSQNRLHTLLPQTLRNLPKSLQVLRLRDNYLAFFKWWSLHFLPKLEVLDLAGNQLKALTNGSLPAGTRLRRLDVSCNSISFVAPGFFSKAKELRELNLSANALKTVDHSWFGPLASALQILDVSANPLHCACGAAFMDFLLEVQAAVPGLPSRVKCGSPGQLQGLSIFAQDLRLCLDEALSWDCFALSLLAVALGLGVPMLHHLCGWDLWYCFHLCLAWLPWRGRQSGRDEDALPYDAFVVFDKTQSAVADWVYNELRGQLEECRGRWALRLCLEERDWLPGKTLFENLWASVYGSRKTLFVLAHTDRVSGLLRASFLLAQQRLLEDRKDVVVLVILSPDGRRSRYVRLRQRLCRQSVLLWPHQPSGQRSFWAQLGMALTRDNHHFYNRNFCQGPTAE
UniProt Q99836, whole entry, looked up: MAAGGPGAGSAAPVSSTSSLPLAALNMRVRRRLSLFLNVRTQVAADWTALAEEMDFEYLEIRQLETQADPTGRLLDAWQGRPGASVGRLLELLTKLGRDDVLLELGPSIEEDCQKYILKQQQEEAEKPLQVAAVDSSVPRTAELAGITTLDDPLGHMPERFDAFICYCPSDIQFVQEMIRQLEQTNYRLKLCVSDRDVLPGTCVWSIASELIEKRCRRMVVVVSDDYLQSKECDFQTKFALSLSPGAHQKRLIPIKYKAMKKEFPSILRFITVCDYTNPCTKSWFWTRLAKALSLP

Target: Toll-like receptor 9 (Homo sapiens) + Myeloid differentiation primary response protein MyD88 (Homo sapiens) (UniProt Q9NR96+Q99836)
Assay: disruptors of TLR9 binding to MyD88 – cell-based, CHO, BLA complementation, fluorescence, primary screen (AID 504734);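 further: 0% = DMSO only wells and 100% = clavulanate BLA inhibitor control wells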
Settings: CHO BLA complementation TLR9-MyD88, CCF4 FRET ratio; at 4.98 µM; stronger effect = higher value

Structure (SMILES) | inhibition
Nc1ccc([As](=O)(O)c2ccc(N)cc2)cc1 | inactive: -5.36%
O=C(Nc1cc([As](=O)(O)O)ccc1O)c1ccccc1 | inactive: -2.92%
O=P1(N(CCCl)CCCl)OCCCS1 (stereo not drawn) | inactive: -0.99%
O=C(O)CNc1ccc([As](=O)(O)O)cc1 | inactive: -0.82%
COC(=O)C1(C)COP(=O)(Nc2ccccc2)OC1 (stereo not drawn) | inactive: -3.41%
O=[N+]([O-])c1cccc(NC2=NCC(CBr)S2)c1 (stereo not drawn) | inactive: 4.35%
O=[N+]([O-])c1ncn(CCn2ncnc2[N+](=O)[O-])n1 | inactive: 10.9%
CC(C)(C)C(=O)NC(Sc1ccncn1)C(Cl)(Cl)Cl (stereo not drawn) | inactive: -6.82%
CN(C(=O)Cc1ccc(Cl)c(Cl)c1)[C@H]1CCCC[C@@H]1N1CCCC1 | inactive: -3.83%
Cc1ccc(NP(=O)(Oc2ccccc2F)Oc2ccccc2F)nc1 | inactive: -12.3%
Cc1cc(SC(NC(=O)c2ccc(F)cc2)C(Cl)(Cl)Cl)ncn1 (stereo not drawn) | inactive: -0.11%
CCOP(=O)(Nc1ccccc1)OCC | inactive: -3.21%
O=P(Nc1nc2ccc(Cl)cc2s1)(c1ccccc1)c1ccccc1 | inactive: -5.81%
CN(C)P(=O)(N(C)C)n1c(Nc2ccccc2)nnc1-c1ccccc1 | inactive: -5.92%
CCCC1OP(N)(=O)OCC1CC (stereo not drawn) | inactive: 0.69%
CC(=O)Nc1ccc([As](=O)(O)O)cc1 | inactive: 0.09%
O=C(O)c1ccccc1[As](=O)(O)O | inactive: 7.26%
Nc1cccc2ccc([As](=O)(O)O)cc12 | inactive: -5.01%
CCN(N=Nc1nonc1N)c1nonc1N | inactive: 5.29%
CN1CCCC(OC(=O)C(c2ccccc2)c2ccccc2)C1 (stereo not drawn) | inactive: -6.04%
Clc1ccc(Cl)c(NC2=NCC(CBr)S2)c1 (stereo not drawn) | inactive: 5.93%
COc1ccccc1OP(=O)(Nc1ccc(C)cn1)Oc1ccccc1OC | inactive: 0.76%
Cc1ccc(N/C(=N/P(=O)(N2CCOCC2)N2CCOCC2)N2CCOCC2)cc1 | inactive: -9.13%

Structure (SMILES) | inhibition
CN(C(=O)Cc1ccc(Cl)c(Cl)c1)[C@H]1CCCC[C@H]1N1CCCC1 | inactive: -1.87%
NC(=O)c1cc([N+](=O)[O-])cc([N+](=O)[O-])c1N | inactive: 5.04%
O=C(NC(Sc1ccncn1)C(Cl)(Cl)Cl)c1ccccc1 (stereo not drawn) | inactive: 2.19%
Oc1ccccc1CNc1ccccn1 | inactive: -1.73%
Nc1cc(N)c2nonc2c1[N+](=O)[O-] | inactive: 2.4%
CC(C)CC(=O)NC(Sc1ccc(Cl)cc1)C(Cl)(Cl)Cl (stereo not drawn) | inactive: 7%
CC(C)(C)C(=O)NC(Sc1ccccc1)C(Cl)(Cl)Cl (stereo not drawn) | inactive: 3.97%
CCc1cc(O)c([N+](=O)[O-])c(C)c1[N+](=O)[O-] | inactive: 11%
CCOc1ccc(C2=NCC(CBr)S2)cc1 (stereo not drawn) | inactive: 6.36%
O=P1(Nc2nc3ccc(Cl)cc3s2)COc2ccccc2O1 (stereo not drawn) | inactive: -0.49%
CC(=O)Nc1ccc(Oc2c([N+](=O)[O-])cc([N+](=O)[O-])cc2[N+](=O)[O-])cc1 | inactive: 10.7%
CC(=O)Nc1ccc([As](=O)(O)O)c(O)c1 | inactive: 3.96%
C[C@H]1OP(=O)(Oc2ccccc2)C[C@@H]2O[C@@H]21 (stereo partly drawn) | inactive: -5.27%
C[C@@H]1C=CCP(=O)(Oc2ccccc2)O1 (stereo partly drawn) | inactive: -5.12%
Cc1ccccc1CN(C)C(=O)COC(=O)C(O)(c1ccccc1)c1ccccc1 | inactive: -11.3%
COC(=O)C1(C)COP(=O)(NCc2ccccc2)OC1 (stereo not drawn) | inactive: -9.49%
CC(=O)c1ccc(N2CC2c2ccncc2)cc1 (stereo not drawn) | inactive: -8.67%
N#C/C(=C\c1ccc(N(CCBr)CCBr)cc1)C(N)=O | inactive: -9.78%
O=P1(N(CCCl)CCCl)OCCC2CCCCN21 (stereo not drawn) | inactive: 1.57%
O=C(NC1CCS(=O)(=O)C1)NP(=S)(Oc1ccccc1)Oc1ccccc1 (stereo not drawn) | inactive: 4.29%
CCNC(=S)/N=C(\N)N[N+](=O)[O-] | inactive: 0.99%
O=c1c2cc([N+](=O)[O-])ccc2[nH]c2c([N+](=O)[O-])cc([N+](=O)[O-])cc12 | inactive: -9.27%
CN(C)C(=O)Oc1noc2ccccc12 | inactive: 1.63%

Structure (SMILES) | inhibition
CC(NC(=O)COC(=O)C(O)(c1ccccc1)c1ccccc1)c1ccccc1 (stereo not drawn) | inactive: -10.5%
Cc1ccccc1OP(=O)(Nc1ccccn1)Oc1ccccc1C | inactive: -8.69%
CCC(=O)N1C2C3N(C(=O)CC)C1C1N(C(=O)CC)C(C(N1C(=O)CC)N3C(=O)CC)N2C(=O)CC | inactive: 8.97%
O=C(OC1CN2CCC1CC2)c1ccccc1 (stereo not drawn) | inactive: 1.55%
CC(=O)NC(SC(=S)N(CC(C)C)CC(C)C)C(Cl)(Cl)Cl (stereo not drawn) | inactive: -1.09%
Cc1ccc(OP(=O)(Nc2ccccn2)Oc2ccc(C)cc2)cc1 | inactive: 3.77%
COC(=O)c1cc2c(s1)N=C(c1ccccc1)N(C)P2(=O)N1CCOCC1 (stereo not drawn) | inactive: -6.23%
C[C@H]1OP(=O)(Oc2ccccc2)[C@H](O)[C@H](O)[C@H]1N=[N+]=[N-] (stereo partly drawn) | inactive: -3.16%
O=P(Nc1nc2ccccc2s1)(c1ccccc1)c1ccccc1 | inactive: 6.36%
CN(C)C1(CNC(=O)c2ccc(Cl)c(S(N)(=O)=O)c2)CCCCC1 | inactive: -2.46%
O=P(Nc1ccccn1)(c1ccc(Br)cc1)c1ccc(Br)cc1 | inactive: -9.65%
COc1ccc(N)c([N+](=O)[O-])c1[N+](=O)[O-] | inactive: -5.63%
O=C(OC1CN2CCC1CC2)c1cccc(Cl)c1 (stereo not drawn) | inactive: -0.3%
C(Cc1nn[nH]n1)Cc1nn[nH]n1 | inactive: -11.1%
Nc1ccc([As](=O)(O)c2ccc([N+](=O)[O-])cc2)cc1 | inactive: -7.18%
O=[As](O)(c1ccccc1)c1ccc(O)cc1 | inactive: 9.37%
CC(=O)NC(SC(=S)N(C)C)C(Cl)(Cl)Cl (stereo not drawn) | inactive: 2.7%
O=[N+]([O-])c1ncn(CCn2cnc([N+](=O)[O-])n2)n1 | inactive: 7.21%
O=[N+]([O-])c1ccc(O)c(/C=N/Nc2ccc([N+](=O)[O-])cc2[N+](=O)[O-])c1 | inactive: -8.82%
c1nnnn1CCn1cnnn1 | inactive: -6.16%
O=P(Nc1nccs1)(c1ccccc1)c1ccccc1 | inactive: 1.78%
CC(C)C(=O)NC(Sc1ccccc1)C(Cl)(Cl)Cl (stereo not drawn) | inactive: -3.88%
